For one compound, growth reduction results are on record in the supplement of paper PMC12024424.

The list shows a part of the results, in another mix than the full data.

For the assay, the system named is Staphylococcus aureus Sa2 (MRSA, cystic fibrosis isolate). The experiment in a line: growth reduction vs untreated control (viable cell count); higher = stronger antibacterial activity; extreme values may be limits of the assay. Particulars: 0.1 mM; 24 h. On the procedure: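 Single-dose screen of the MedChem Express Drug Repurposing Library (0.1 mM, 1% DMSO) against planktonic MRSA S. aureus Sa2 (CF isolate) in TSB in 96-well plates, 37 °C aerobic, 24 h. Growth reduction is relative to the untreated inoculated control: OD550 of supernatant (blank-subtracted) and confirmation by viable CFU count. Assays were run in triplicate and repeated twice.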
The compound `COc1cc(Br)c(C[N+]2(CCOCCC3CCC4CC3C4(C)C)CCOCC2)cc1OC` (stereo unspecified) [Pinaverium bromide] came in with a growth reduction of 100%.
